# The list shows a part of the results, in another mix than the full data. Active and inactive are the calls of the source. No stated cut-off is given here; in the data, active means inhibition above about 22%; inactive means the rest.
# Test: fluorescence retest of MPTP screen hits in isolated mitochondria, single concentration (AID 624504);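 further: 0% = DMSO vehicle and 100% = positive control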
# Settings: membrane potential, Rhodamine 123 fluorescence, at 10 µM, hits give high values
row,Structure (SMILES),inhibition
1,CCC1=CC2Cc3nc4ccc(Cl)cc4c(N)c3C(C1)C2 (stereo not given),active: 84.6%
2,O=[N+]([O-])c1ccc(-c2cc([N+](=O)[O-])c(O)c([N+](=O)[O-])c2)cc1,active: 61.1%
3,CSc1ccc(Nc2c([N+](=O)[O-])cc([N+](=O)[O-])cc2[N+](=O)[O-])cc1,active: 70.4%
4,O=c1c2cc([N+](=O)[O-])ccc2[nH]c2c([N+](=O)[O-])cc([N+](=O)[O-])cc12,active: 92.4%
5,O=[N+]([O-])c1ccc(O)c(/C=N/Nc2ccc([N+](=O)[O-])cc2[N+](=O)[O-])c1,active: 63.3%
